Water solubility values, as collected for the OPERA models

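The numbers are reported measurements, compiled and curated for the OPERA QSAR suite. A listed value is a point estimate from one report or more. Method, purity and exact conditions of the single measurements are not given. Where a salt, mixture or single isomer is drawn, the source does not say that exactly this form was tested. Some upstream entries may be estimates or bounds without being marked so.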

Solubility in water is on a log10 molar scale (set defined at 25 °C).

{"smiles": "C=C(C)C1CC=C(C=O)CC1", "stereo": "stereo not given", "name": "Perillaldehyde", "water solubility (log10 mol/L)": "-2.97"}
{"smiles": "CCCOc1nn(C(=O)[N-]S(=O)(=O)c2ccccc2C(=O)OC)c(=O)n1C.[Na+]", "name": "Propoxycarbazone-sodium", "water solubility (log10 mol/L)": "-1"}
{"smiles": "CO[C@]12C[C@@H](COC(=O)c3cncc(Br)c3)CN(C)[C@@H]1Cc1cn(C)c3cccc2c13", "name": "Nicergoline", "water solubility (log10 mol/L)": "-4.581"}
{"smiles": "C[C@]1(O)CC[C@H]2[C@@H]3CCC4=CC(=O)CC[C@]4(C)[C@@]3(F)[C@@H](O)C[C@@]21C", "name": "Fluoxymestrone", "water solubility (log10 mol/L)": "-3.872"}
{"smiles": "CC(C)OC(=O)[C@H](C)N[P@](=O)(Oc1ccccc1)Oc1c(F)c(F)c(F)c(F)c1F", "water solubility (log10 mol/L)": "-6.135"}
{"smiles": "CC(Cc1ccc(C(C)(C)C)cc1)CN1C[C@@H](C)O[C@@H](C)C1", "stereo": "stereo partly drawn", "name": "(2R,6S)-Fenpropimorph", "water solubility (log10 mol/L)": "-4.851"}
{"smiles": "Cc1cccc([N+](=O)[O-])c1C", "name": "1,2-Dimethyl-3-nitrobenzene", "water solubility (log10 mol/L)": "-3.111"}
{"smiles": "C[C@@]12CC[C@@H]3[C@H](CCC4CCCC[C@]43C)[C@H]1CCC2=O", "stereo": "some centres not stated", "water solubility (log10 mol/L)": "-5.7"}
{"smiles": "C=CC(=O)OCC1CC2CC1C1CCC(COC(=O)C=C)C21", "stereo": "stereo not given", "name": "Tricyclodecanedimethanol diacrylate", "water solubility (log10 mol/L)": "-4.493"}
{"smiles": "FC(F)OCC(F)(F)C(F)(F)F", "name": "Difluoromethyl 1H,1H-perfluoropropyl ether", "water solubility (log10 mol/L)": "-3.26"}
{"smiles": "CCc1cccc(C)c1N", "name": "2-Ethyl-6-methylaniline", "water solubility (log10 mol/L)": "-1.706"}
{"smiles": "CCC1(CC(C)C)C(=O)NC(=O)NC1=O", "name": "5-Ethyl-5-(2-methylpropyl)barbituric acid", "water solubility (log10 mol/L)": "-5.142"}
{"smiles": "CC1(C)C(C(=O)OC(C#N)c2cccc(Oc3ccccc3)c2)C1(C)C", "stereo": "stereo not given", "name": "Fenpropathrin", "water solubility (log10 mol/L)": "-6.025"}
{"smiles": "CCCC(C)OC(N)=O", "stereo": "stereo not given", "name": "1-Methylbutyl carbamate", "water solubility (log10 mol/L)": "-1.226"}
{"smiles": "CC(O)(CSc1ccc(F)cc1)C(=O)Nc1ccc(C#N)c(C(F)(F)F)c1", "stereo": "stereo not given", "name": "Bicalutamide sulfide", "water solubility (log10 mol/L)": "-4.936"}
{"smiles": "COc1cc2c(c(OC)c1OC)-c1ccc(O)c(=O)cc1[C@@H](N)CC2", "water solubility (log10 mol/L)": "-1.39"}
{"smiles": "CCC1(C(=O)NC(C)c2ccc(Cl)cc2)C(C)C1(Cl)Cl", "stereo": "stereo not given", "name": "Carpropamid", "water solubility (log10 mol/L)": "-5.27"}
{"smiles": "COc1ccc(C=O)cc1O", "name": "3-Hydroxy-4-methoxy-benzaldehyde", "water solubility (log10 mol/L)": "-1.826"}
{"smiles": "O=C(Cc1ccccc1)OCCc1ccccc1", "name": "2-Phenylethyl phenylacetate", "water solubility (log10 mol/L)": "-4.114"}
{"smiles": "CCOC(=O)CSP(=S)(OCC)OCC", "name": "Acethion", "water solubility (log10 mol/L)": "-3.6"}
{"smiles": "CCCC[N+](CCCC)(CCCC)CCCC.[I-]", "name": "Tetrabutylammonium iodide", "water solubility (log10 mol/L)": "-2.056"}
{"smiles": "C1CC(COCC2CO2)CCC1COCC1CO1", "stereo": "stereo not given", "water solubility (log10 mol/L)": "-1.836"}
{"smiles": "CCCC(C)O[N+](=O)[O-]", "stereo": "stereo not given", "name": "1-Methylbutyl nitrate", "water solubility (log10 mol/L)": "-2.48"}
{"smiles": "CNC(=N[N+](=O)[O-])NCC1CCOC1", "stereo": "stereo not given", "name": "Dinotefuran", "water solubility (log10 mol/L)": "-0.706"}
{"smiles": "Nc1ccc(Sc2ccc(N)cc2)cc1", "name": "4,4'-Thiodianiline", "water solubility (log10 mol/L)": "-2.64"}
{"smiles": "Cc1c([N+](=O)[O-])c(C)c([N+](=O)[O-])c(C(C)(C)C)c1[N+](=O)[O-]", "name": "Musk Xylene", "water solubility (log10 mol/L)": "-5.783"}

4 of these entries, quoted again:

{"smiles": "CC(C)OC(=O)[C@H](C)N[P@](=O)(Oc1ccccc1)Oc1c(F)c(F)c(F)c(F)c1F", "water solubility (log10 mol/L)": "-6.135"}
{"smiles": "CC(Cc1ccc(C(C)(C)C)cc1)CN1C[C@@H](C)O[C@@H](C)C1", "stereo": "stereo partly drawn", "name": "(2R,6S)-Fenpropimorph", "water solubility (log10 mol/L)": "-4.851"}
{"smiles": "CCCC[N+](CCCC)(CCCC)CCCC.[I-]", "name": "Tetrabutylammonium iodide", "water solubility (log10 mol/L)": "-2.056"}
{"smiles": "COc1cc2c(c(OC)c1OC)-c1ccc(O)c(=O)cc1[C@@H](N)CC2", "water solubility (log10 mol/L)": "-1.39"}

Source: data files of OPERA 2.9 (Mansouri et al.), github.com/kmansouri/OPERA.